Patent publication US5932555A, “Terpenoid compound 0406TP-1” (priority 1997, dated 1999)

Tested on: CDF1 mice
Test: Repeated administration toxicity test (intraperitoneal)
Assay type: in vivo, mouse (CDF1)
Conditions: for Number of survived animals, Day 4 / Number of survived animals, Day 5 / Number of survived animals, Day 6 / Number of survived animals, Day 7 / Number of survived animals, Day 8 / Number of survived animals, Day 10: of 10
Description: As the comparative control, test solutions of adriamycin were prepared in the same manner. […] The number with time of survived animals after administration and the average body weights on Days 0, 5, and 10 were determined.

SMILES: COC(CC1C(C)=CCC2C1(C)CCC1C(C)(C)C(O)C(OC3OC(C)C(OC(=O)c4cccc(O)c4)C(OC4OC(CO)C(O)C(O)C4NC(C)=O)C3O)CC12C)C(N)C(=O)O (stereo not drawn) [0406TP-1]
- Number of survived animals, Day 4 (1 mg/kg/day i.p. × 10 days): 10
- Number of survived animals, Day 5 (1 mg/kg/day i.p. × 10 days): 10
- Number of survived animals, Day 6 (1 mg/kg/day i.p. × 10 days): 10
- Number of survived animals, Day 7 (1 mg/kg/day i.p. × 10 days): 10
- Number of survived animals, Day 8 (1 mg/kg/day i.p. × 10 days): 10
- Number of survived animals, Day 10 (1 mg/kg/day i.p. × 10 days): 10
- Number of survived animals, Day 4 (5 mg/kg/day i.p. × 10 days): 10
- Number of survived animals, Day 5 (5 mg/kg/day i.p. × 10 days): 10
- Number of survived animals, Day 6 (5 mg/kg/day i.p. × 10 days): 10
- Number of survived animals, Day 7 (5 mg/kg/day i.p. × 10 days): 10
- Number of survived animals, Day 8 (5 mg/kg/day i.p. × 10 days): 10
- Number of survived animals, Day 10 (5 mg/kg/day i.p. × 10 days): 10
- Number of survived animals, Day 4 (10 mg/kg/day i.p. × 10 days): 10
- Number of survived animals, Day 5 (10 mg/kg/day i.p. × 10 days): 10
- Number of survived animals, Day 6 (10 mg/kg/day i.p. × 10 days): 10
- Number of survived animals, Day 7 (10 mg/kg/day i.p. × 10 days): 10
- Number of survived animals, Day 8 (10 mg/kg/day i.p. × 10 days): 10
- Number of survived animals, Day 10 (10 mg/kg/day i.p. × 10 days): 10
- survival in repeated administration (i.p. 10 days, in words): survived
- growth / body weight in repeated administration (i.p. 10 days, in words, vs control): normal increase in body weight
- toxicity and safety (repeated administration, in words): low toxicity
